Test system: noise-induced hearing loss
Test: Auditory brainstem response (ABR) test in noise-induced hearing loss animal model
Format: in vivo, Balb/c mice
Conditions: 50 mg/kg intraperitoneally once a day for 7 days before 100 dB white noise for 50 minutes; tone bursts 8, 16, 32 kHz; 1 day, 7 days and 14 days after exposure
Description: In order to exclude mice having congenitally abnormal hearing, a preliminary hearing test was performed on all mice before the experiment. A total of 24 7-week-old male Balb/c mice were subjected to an auditory brainstem response (ABR) test and were divided into an experimental group (12 mice) administered with sarpogrelate (50 mg/kg) before exposure to noise and a control group (12 mice) not administered with sarpogrelate. The sarpogrelate (50 mg/kg) was intraperitoneally administered once a day for 7 days, and the mice were exposed to 100 dB of white noise for 50 minutes after administration, to establish an animal model with noise-induced hearing loss (FIG. 1). 7 days after administration of sarpogrelate (50 mg/kg), an auditory brainstem response (ABR) test was performed to analyze auditory function. The minimum stimulus sound that forms a wave (V) when applying tone bursts of 8 kHz, 16 kHz and 32 kHz using a Tucker-Davis Technologies (TDT) ABR instrument is determined to be a hearing threshold, the hearing of the experimental group administered with sarpogrelate and the control group not administered with sarpogrelate was measured, and the effect of sarpogrelate on prevention of noise-induced hearing loss was comparatively analyzed.

## COc1cccc(CCc2ccccc2OCC(CN(C)C)OC(=O)CCC(=O)O)c1 (stereo not shown) [sarpogrelate, 4-[2-(dimethylamino)-1-({2-[2-(3-methoxyphenyl)ethyl]phenoxy}methyl)ethoxy]-4-oxobutanoic acid]
  hearing threshold (ABR) compared to the control group: significantly reduced

Source: patent US11376233B2, “Composition, containing sarpogrelate as active ingredient, for preventing or treating sensorineural hearing loss” (AJOU UNIVERSITY INDUSTRY-ACADEMIC COOPERATION FOUNDATION, priority 2017, dated 2022)
